Source: patent publication US9861612B2 (priority 2014, dated 2018)
pIC50: −log10 of the molar value. Where two headings read alike, the source gives them in different places.

Chains of the proteins cited; added tags and fusions are not shown. Lines headed by an entry give the natural chain unless they say otherwise; changes in a name come on top.
UniProt P51449: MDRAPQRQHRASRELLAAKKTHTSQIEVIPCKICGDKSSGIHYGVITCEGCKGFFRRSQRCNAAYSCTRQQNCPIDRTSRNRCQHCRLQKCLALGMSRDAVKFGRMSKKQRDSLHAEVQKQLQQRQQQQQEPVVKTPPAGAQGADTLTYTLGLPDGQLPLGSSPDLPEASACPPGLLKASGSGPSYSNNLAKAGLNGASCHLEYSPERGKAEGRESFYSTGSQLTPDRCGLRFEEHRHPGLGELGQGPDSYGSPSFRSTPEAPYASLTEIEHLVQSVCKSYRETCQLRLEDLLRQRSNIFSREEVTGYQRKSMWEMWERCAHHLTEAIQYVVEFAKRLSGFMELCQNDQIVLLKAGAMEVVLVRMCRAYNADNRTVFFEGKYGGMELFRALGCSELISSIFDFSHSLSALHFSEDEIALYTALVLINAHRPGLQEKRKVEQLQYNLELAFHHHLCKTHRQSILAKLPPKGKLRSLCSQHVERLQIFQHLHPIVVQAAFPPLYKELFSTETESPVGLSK

Target: RORγ ligand binding domain (Homo sapiens (Human), UniProt P51449)
Assay: biochemical
Experimental: Various concentrations of test ligands in 0.1 microlitres DMSO were dispensed to assay plates using an Labcyte Echo acoustic dispenser. Two pre-mixes were prepared and incubated for 1 hr at room temp in the dark.

O=C(O)c1ccc(-n2cc(C(=O)c3c(Cl)cccc3C(F)(F)F)c3ccccc32)cc1 [Comparator 1, 4-[3-[2-chloro-6-(trifluoromethyl)benzoyl]-1H-indol-1-yl]benzoic acid, reference compound]
pIC50 (read-out: RORγ FRET-Mean IC50): 7.01

O=C(O)c1ccc(-n2cc(C(=O)c3c(Cl)cccc3C(F)(F)F)c3cccc(F)c32)cc1 [Compound 1, 4-[3-[2-chloro-6-(trifluoromethyl)benzoyl]-7-fluoro-1H-indol-1-yl]benzoic acid]
pIC50: 7.36
